Experiment [1] deals with T1, UT-B (Mus musculus, UniProt Q8VHL0).
T1 construct: The erythrocytes were diluted with hypertonic PBS containing 1.25 M urea; endogenous in cells; host or cells: erythrocytes of C57 mice
T1 sequence (Q8VHL0 1-384): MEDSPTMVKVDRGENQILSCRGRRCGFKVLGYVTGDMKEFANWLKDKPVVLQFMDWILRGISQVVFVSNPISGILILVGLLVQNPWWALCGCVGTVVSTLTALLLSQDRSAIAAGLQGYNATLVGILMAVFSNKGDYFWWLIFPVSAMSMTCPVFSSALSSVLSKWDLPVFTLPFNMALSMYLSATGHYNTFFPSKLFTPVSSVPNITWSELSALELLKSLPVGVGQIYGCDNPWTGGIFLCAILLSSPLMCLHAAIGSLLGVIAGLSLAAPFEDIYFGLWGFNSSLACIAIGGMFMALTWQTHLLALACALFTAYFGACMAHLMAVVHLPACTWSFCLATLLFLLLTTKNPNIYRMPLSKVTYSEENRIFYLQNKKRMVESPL
Briefly: erythrocyte lysis model, mouse erythrocytes. It is filed as cell-based, mice.

Experiment [2] concerns the target T2, UT-B (Rattus norvegicus, UniProt P97689).
T2 construct: The erythrocytes were diluted with hypertonic PBS containing 1.25 M urea; endogenous in cells; host or cells: erythrocytes of SD rats
T2 sequence (P97689 1-384): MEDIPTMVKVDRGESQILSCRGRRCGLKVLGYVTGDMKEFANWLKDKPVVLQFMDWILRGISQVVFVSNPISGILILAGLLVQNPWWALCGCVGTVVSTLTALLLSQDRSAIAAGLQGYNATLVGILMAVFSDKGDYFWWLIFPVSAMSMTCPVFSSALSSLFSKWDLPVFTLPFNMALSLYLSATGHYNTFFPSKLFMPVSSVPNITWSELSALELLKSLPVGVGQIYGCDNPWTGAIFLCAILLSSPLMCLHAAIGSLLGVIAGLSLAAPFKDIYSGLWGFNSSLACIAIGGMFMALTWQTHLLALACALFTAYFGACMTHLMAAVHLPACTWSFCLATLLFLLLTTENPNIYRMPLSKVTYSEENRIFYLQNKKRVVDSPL
Briefly: erythrocyte lysis model, rat erythrocytes. It is filed as cell-based, rats.

Another experiment addresses T3, human UT-B (Homo sapiens, UniProt Q13336).
T3 construct: The erythrocytes were diluted with hypertonic PBS containing 1.25 M urea; endogenous in cells; host or cells: human erythrocytes
T3 sequence (Q13336 1-389): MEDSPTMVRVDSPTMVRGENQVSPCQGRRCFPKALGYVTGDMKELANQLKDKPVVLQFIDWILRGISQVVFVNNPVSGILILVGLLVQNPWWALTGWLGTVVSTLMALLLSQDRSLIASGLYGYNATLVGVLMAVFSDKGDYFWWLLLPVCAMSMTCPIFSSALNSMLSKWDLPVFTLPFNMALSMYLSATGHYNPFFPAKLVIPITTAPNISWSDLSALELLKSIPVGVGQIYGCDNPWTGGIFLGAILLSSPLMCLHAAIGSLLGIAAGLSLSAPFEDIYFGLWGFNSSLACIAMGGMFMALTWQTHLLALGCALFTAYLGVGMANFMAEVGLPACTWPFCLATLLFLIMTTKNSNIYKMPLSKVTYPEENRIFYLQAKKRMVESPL
Briefly: erythrocyte lysis model, human erythrocytes. It is filed as cell-based.

The mark [3] stands for this setting: Activity level, class of the IC50 to human UT-B.
The mark [4] stands for this setting: IC50 human, concentration when the erythrocyte lysis rate of human was 50%.

The structures appear in SMILES notation. Like-named read-outs stand apart in the source and are kept apart here.

For the compound `O=C(Nc1ccccc1)c1ccc([N+](=O)[O-])o1` [Example 5, N-phenyl-5-nitrofuran-2-carboxamide], the IC50 was 4.24 µM against UT-B [1], 1.03 µM against UT-B [2], below 10 µM against human UT-B (setting [3]) and 0.84 µM against human UT-B (setting [4]).

With `CC(=O)Nc1ccc(NC(=O)c2ccc(C(C)=O)o2)cc1` [Example 70, N-(4-acetamidophenyl)-5-acetylfuran-2-carboxamide], the IC50 on UT-B [1] (concentration when the erythrocyte lysis rate of mice was 50%, read-out: IC50 mice) was 0.85 µM; at UT-B [2] (concentration when the erythrocyte lysis rate of rats was 50%, read-out: IC50 rats), 0.11 µM; on human UT-B (class of the IC50 to human UT-B, read-out: Activity level), below 10 µM; on human UT-B (concentration when the erythrocyte lysis rate of human was 50%, read-out: IC50 human), 0.054 µM.

Take `O=C(Nc1ccc(Cl)cc1)c1ccc([N+](=O)[O-])o1` [Example 39, N-(4-chlorophenyl)-5-nitrofuran-2-carboxamide]: the IC50 at UT-B [1] is 27.8 µM; against UT-B [2], 10.9 µM; against human UT-B (setting [3]), 20 to 80 µM; against human UT-B (setting [4]), 26.1 µM.

Values taken from patent US12428389B2, “Diarylamide compound and application thereof” (Sunshine Lake Pharma Co., Ltd., priority 2019, dated 2025).
